Each structure is given as a SMILES string. This is a selection; strong and weak results do not stand in their true shares. Some tests of the compounds listed are not included; inactive here does not mean inactive elsewhere. Active and inactive are the calls of the source. Cut-off read from the data, not from the text of the source: active = binding response below about 49% or above about 150%; inactive = in between.

Protein sequences, listed by entry. Tags and fused reporters are not part of them.
UniProt P09471, whole entry: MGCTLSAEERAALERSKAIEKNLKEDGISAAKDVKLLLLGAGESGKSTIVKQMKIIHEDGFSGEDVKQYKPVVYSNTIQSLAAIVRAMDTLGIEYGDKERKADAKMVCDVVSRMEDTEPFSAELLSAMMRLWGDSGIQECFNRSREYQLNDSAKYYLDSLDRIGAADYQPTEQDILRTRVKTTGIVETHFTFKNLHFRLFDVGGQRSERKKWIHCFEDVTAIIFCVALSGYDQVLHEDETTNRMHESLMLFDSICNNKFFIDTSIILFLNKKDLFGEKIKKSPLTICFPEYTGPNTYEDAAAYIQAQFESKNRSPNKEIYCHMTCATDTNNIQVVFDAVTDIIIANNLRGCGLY

The target in this assay is Guanine nucleotide-binding protein G(o) subunit alpha (Homo sapiens) (UniProt P09471). Nature of the assay: modulators of RGS4 binding to Galphao, primary screen, biochemical, multiplexed bead flow cytometry (AID 1415).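 Note: fluorescent Galphao activated with aluminum fluoride binding bead-coupled RGS4.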 The following applies: at 10 µM, actives lie on both sides.
Consider `COc1cccc(C(=O)NCC2(N3CCCCC3)CCCCC2)c1`, for which the binding response (% of control) was inactive: 99.1%.

Regarding `O=C(OC1CN2CCC1CC2)C(CO)(c1ccccc1)c1ccccc1` (stereo unspecified), the binding response (% of control) is inactive: 100%.

Regarding `COc1ccc(Br)c(C(=O)NCC2(N3CCCCC3)CCCCC2)c1`, the binding response (% of control) was inactive: 99.1%.

Regarding `CN(C)c1cccc(C(=O)NCC2(N(C)C)CCCCC2)c1`, the binding response (% of control) was inactive: 98.8%.

On to `O=C(NCC1(N2CCCCC2)CCCCC1)c1cc([N+](=O)[O-])ccc1Cl`, for which the binding response (% of control) is inactive: 105%.

Consider `CC(C)N1C(=O)CC2(CCN(CCOC(=O)C(O)(c3ccccc3)c3ccccc3)CC2)C1=O`, for which the binding response (% of control) was inactive: 96.9%.

Regarding `CCN(CC)CC(C)C(C)OC(=O)C(O)(c1ccccc1)c1ccccc1` (stereo unspecified), the binding response (% of control) is inactive: 96.5%.

As to `Cc1ccccc1C(=O)NCC1(N2CCCCC2)CCCCC1`, the binding response (% of control) was inactive: 108%.

Take `CN(C)C1CCCC1OC(=O)C(O)(c1ccccc1)c1ccccc1` (stereo unspecified): the binding response (% of control) was inactive: 101%.

Regarding `C=CCN1CCN(CCOC(=O)C(O)(c2ccccc2)c2ccccc2)CC1`, the binding response (% of control) was inactive: 102%.

On to `CCN1CCCC(OC(=O)C2(O)c3ccccc3C=Cc3ccccc32)C1` (stereo unspecified), for which the binding response (% of control) is inactive: 117%.
